The source of these data is ChEMBL document CHEMBL5360553, “C(21)-fluorinated thevinol scaffold for opioid ligands. 21,21,21-Trifluoro-6-O-nororvinols: Design, synthesis and analgesic activity” (2023).

The series is described as follows: Toxicity against naive Swiss mouse assessed as lethality measured at 0.1 to 10 mg/kg measured after 7 days. To be noted: in vivo, 168 h.

`C[C@@](O)([C@H]1C[C@@]23C=C[C@]1(O)[C@@H]1Oc4c(O)ccc5c4[C@@]12CCN(CC1CC1)[C@@H]3C5)C(F)(F)F.Cl`: the Activity entry is reported as “Non-Toxic”.
